The numbers were not newly measured in patent US20260265329A1, “POLYPEPTIDE AND DERIVATIVE THEREOF, COMPOSITION, AND USE THEREOF” (HANGZHOU SCIWIND BIOSCIENCES CO., LTD., priority 2023, published 2026), which cites them from elsewhere.

The conditions of this series: in vivo, background statement; cited from earlier work.

As to `CC[C@H](C)[C@H](NC(=O)[C@@H]1CCCN1C(=O)CNC(=O)[C@H](Cc1ccccc1)NC(=O)[C@H](CC(N)=O)NC(=O)[C@H](CC(N)=O)NC(=O)[C@H](CO)NC(=O)[C@H](CO)NC(=O)[C@H](Cc1c[nH]cn1)NC(=O)[C@@H](NC(=O)[C@H](CC(C)C)NC(=O)[C@H](Cc1ccccc1)NC(=O)[C@H](CC(N)=O)NC(=O)[C@H](C)NC(=O)[C@H](CC(C)C)NC(=O)[C@H](CCCNC(=N)N)NC(=O)[C@H](CCC(N)=O)NC(=O)[C@@H](NC(=O)[C@H](C)NC(=O)[C@@H]1CSSC[C@H](NC(=O)[C@@H](N)CCCCN)C(=O)N[C@@H](CC(N)=O)C(=O)N[C@@H]([C@@H](C)O)C(=O)N[C@@H](C)C(=O)N[C@@H]([C@@H](C)O)C(=O)N1)[C@@H](C)O)C(C)C)C(=O)N[C@@H](CC(C)C)C(=O)N1CCC[C@H]1C(=O)N1CCC[C@H]1C(=O)N[C@H](C(=O)N[C@@H](CC(N)=O)C(=O)N[C@H](C(=O)NCC(=O)N[C@@H](CO)C(=O)N[C@@H](CC(N)=O)C(=O)N[C@H](C(=O)N[C@@H](Cc1ccc(O)cc1)C(N)=O)[C@@H](C)O)C(C)C)[C@@H](C)O` [Pramlintide], the half-life entry is recorded as “less than an hour”.
